{"sequences": {"note": "Protein sequences, listed by entry. Tags and fused reporters are not part of them. Residues count along the entry.", "UniProt P43220, 24-463": "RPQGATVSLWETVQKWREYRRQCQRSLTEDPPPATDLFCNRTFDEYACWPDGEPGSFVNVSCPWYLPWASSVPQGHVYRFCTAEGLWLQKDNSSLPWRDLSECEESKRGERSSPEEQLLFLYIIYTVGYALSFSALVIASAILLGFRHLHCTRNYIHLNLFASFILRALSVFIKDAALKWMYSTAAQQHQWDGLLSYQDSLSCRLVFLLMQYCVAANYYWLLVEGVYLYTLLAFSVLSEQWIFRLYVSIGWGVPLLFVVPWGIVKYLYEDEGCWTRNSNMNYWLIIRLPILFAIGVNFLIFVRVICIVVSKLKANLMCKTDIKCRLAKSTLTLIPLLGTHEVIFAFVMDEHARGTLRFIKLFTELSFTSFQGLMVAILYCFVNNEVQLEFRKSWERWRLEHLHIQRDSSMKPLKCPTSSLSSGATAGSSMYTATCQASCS"}, "source": "paper PMC3173463", "about": "“Discovery of Dual-Action Membrane-Anchored Modulators of Incretin Receptors” (PLoS ONE, 2011)", "key": {"GLP-1R": {"target": "T1, GLP-1R (Homo sapiens, UniProt P43220)", "T1 construct": "expressed in transfected cells; host or cells: HEK293 cells, transient transfection, pcDNA1.1 plasmid", "assay": "CRE luciferase reporter gene assay, soluble ligands on GLP-1R expressing cells", "assay_type": "cell-based", "settings": "soluble peptides, 6 hours stimulation; Figure 3A"}, "GIP-R": {"target": "T2, GIP-R (Homo sapiens, UniProt P48546)", "T2 construct": "expressed in transfected cells; host or cells: HEK293 cells, transient transfection, pcDNA1.1 plasmid", "T2 sequence (P48546 22-466)": "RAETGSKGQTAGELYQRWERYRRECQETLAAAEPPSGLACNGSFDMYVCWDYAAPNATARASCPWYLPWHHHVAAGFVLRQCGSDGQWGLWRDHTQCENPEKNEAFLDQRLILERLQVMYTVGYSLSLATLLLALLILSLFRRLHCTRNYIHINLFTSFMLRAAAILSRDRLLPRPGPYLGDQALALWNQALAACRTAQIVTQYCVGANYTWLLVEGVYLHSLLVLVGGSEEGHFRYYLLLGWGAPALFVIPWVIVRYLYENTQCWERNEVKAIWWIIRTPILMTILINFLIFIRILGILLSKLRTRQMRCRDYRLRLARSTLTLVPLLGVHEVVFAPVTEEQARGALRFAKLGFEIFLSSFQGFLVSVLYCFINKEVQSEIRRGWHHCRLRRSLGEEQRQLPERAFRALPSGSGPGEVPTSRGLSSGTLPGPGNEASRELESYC", "assay": "Washout experiments, persistence of agonist-induced signaling (luciferase)", "assay_type": "cell-based", "settings": "15 minutes stimulation, three washes with serum-free medium, additional 4 hour incubation; Figure 7C-E"}}, "data": [{"substance": "glucose-dependent insulinotropic polypeptide [GIP]", "values": [{"measurement": "agonist activity of soluble peptide at the GLP-1R", "setting": "GLP-1R", "value": "minimal if any activity"}, {"measurement": "potency and efficacy at GIP-R following serial washes", "setting": "GIP-R", "value": "markedly decreased"}]}]}
